Our source for the inhibition values is PubChem BioAssay AID1285 (Columbia University Molecular Screening Center, 2008).

This is a selection; strong and weak results do not stand in their true shares. Some tests of the compounds listed are not included; inactive here does not mean inactive elsewhere. Calls of active or inactive are those of the source.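 How the source made its calls: active means inhibition above a set limit, derived from the sample mean plus 3 SD (cut at about 45% in these data); inconclusive means one replicate passes the limit while the other fails; inactive means the rest.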

The test in a line: inhibitors of APP translation via 5'UTR reporter, primary screen, APP 5'UTR luciferase, SH-SY5Y cells (AID 1285). The conditions noted are these: SH-SY5Y APP 5'UTR-luciferase reporter, luminescence; at 2 µM; hits give high values.
As a reminder, the inhibition is the drop in the measured response relative to a control, in per cent. In the case of `CN(C)c1cccc(C(=O)NCC2(N(C)C)CCCCC2)c1`, the inhibition is inactive: -35.3%.

As for `O=C(OC1CN2CCC1CC2)C(CO)(c1ccccc1)c1ccccc1` (centres undefined), the inhibition is inactive: -11.9%.

Consider `COc1cccc(C(=O)NCC2(N3CCCCC3)CCCCC2)c1`, for which the inhibition is inactive: -24.5%.

Regarding `CCN1CCCC(OC(=O)C2(O)c3ccccc3C=Cc3ccccc32)C1` (centres undefined), the inhibition is inactive: 4.8%.

For the molecule `C=CCN1CCN(CCOC(=O)C(O)(c2ccccc2)c2ccccc2)CC1`, the inhibition is inactive: -4.7%.

For the molecule `CN(C)C1CCCC1OC(=O)C(O)(c1ccccc1)c1ccccc1` (centres undefined), the inhibition is inactive: 15.9%.

For the molecule `Cc1ccccc1C(=O)NCC1(N2CCCCC2)CCCCC1`, the inhibition was inactive: -2.9%.

As for `CC(C)N1C(=O)CC2(CCN(CCOC(=O)C(O)(c3ccccc3)c3ccccc3)CC2)C1=O`, the inhibition is inactive: -3.3%.

As to `O=C(NCC1(N2CCCCC2)CCCCC1)c1cc([N+](=O)[O-])ccc1Cl`, the inhibition was inactive: -13.2%.
